Here are results for 24 molecules from PubChem BioAssay AID1979 (Broad Institute, 2009).

Structures are written as SMILES. Only a part is listed here, and it is no random draw. Some of these compounds have results that are not shown, active ones among them. Activity calls are given as the source filed them.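 Rule for the calls: active = growth inhibition above about 58% in most replicates (limit read from the data, passing the limit was not always enough); inconclusive = exactly half the replicates above a set limit; inactive = most replicates below a set limit.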

The nature of this assay: C. albicans growth inhibition with fluconazole, primary screen, CaCi-2 strain, Alamar Blue fluorescence (AID 1979).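 Note: all wells also contain fluconazole at 8 µg/ml as a sub-toxic cotreatment; 0% = median of DMSO wells and 100% = median of geldanamycin control wells.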 The note with it: C. albicans CaCi-2 (fluconazole-resistant clinical isolate) + fluconazole, 48 h, active compounds read high, concentration not given here.
On to `Cc1ccc(C(=O)NCC2(N3CCCCC3)CCCCC2)cc1`, for which the growth inhibition is inactive: -10.1%.

Turning to `CC(C)N1C(=O)CC2(CCN(CCOC(=O)C(O)(c3ccccc3)c3ccccc3)CC2)C1=O`, the growth inhibition was inactive: 2.07%.

For `CCN(CC)CC(C)C(C)OC(=O)C(O)(c1ccccc1)c1ccccc1` (centres undefined), the growth inhibition is inactive: -6.12%.

Regarding `COc1cc(SC)ccc1C(=O)NCC1(N(C)C)CCCCC1`, the growth inhibition is inactive: 14.4%.

As to `CN1[C@@H]2CC[C@H]1CC(OC(=O)C(O)(c1ccccc1)c1ccccc1)C2` (some centres undefined), the growth inhibition is inactive: -9.56%.

Regarding `O=C(NCC1(N2CCCCC2)CCCCC1)c1cc([N+](=O)[O-])ccc1Cl`, the growth inhibition was inactive: -14.1%.

`Cc1cc(C(=O)NCC2(N3CCCCC3)CCCCC2)ccc1[N+](=O)[O-]`: the growth inhibition is inactive: -28.1%.

With `CCN1CCCC(OC(=O)C2(O)c3ccccc3C=Cc3ccccc32)C1` (centres undefined), the growth inhibition is inactive: 0.732%.

On to `O=C(NCC1(N2CCCCC2)CCCCC1)c1cccc(Br)c1`, for which the growth inhibition was inactive: -4.34%.

On to `COc1ccc(C(=O)NCC2(N(C)C)CCCCC2)cc1`, for which the growth inhibition is inactive: -18.1%.

With `C=CCN1CCN(CCOC(=O)C(O)(c2ccccc2)c2ccccc2)CC1`, the growth inhibition is inactive: -7.99%.

Consider `O=C(NCC1(N2CCCCC2)CCCCC1)c1cc(F)c(F)cc1Cl`, for which the growth inhibition was inactive: -4.95%.

In the case of `Cc1ccccc1C(=O)NCC1(N2CCCCC2)CCCCC1`, the growth inhibition was inactive: -27.4%.

For `CN(C)C1CCCC1OC(=O)C(O)(c1ccccc1)c1ccccc1` (centres undefined), the growth inhibition was inactive: -28.6%.

In the case of `CN(C)c1ccc(C(=O)NCC2(N(C)C)CCCCC2)cc1`, the growth inhibition is inactive: -6.24%.

As for `O=C(NCC1(N2CCCCC2)CCCCC1)c1cccc(Cl)c1`, the growth inhibition was inactive: 1.12%.

Take `COc1cccc(C(=O)NCC2(N3CCCCC3)CCCCC2)c1`: the growth inhibition was inactive: -13.1%.

Turning to `COc1ccc(Cl)cc1C(=O)NCC1(N(C)C)CCCCC1`, the growth inhibition was inactive: 0.25%.

As for `COc1cc(C(=O)NCC2(N(C)C)CCCCC2)c([N+](=O)[O-])cc1OC`, the growth inhibition was inactive: -10.1%.

`CN(C)C1(CNC(=O)c2ccc(Br)cc2)CCCCC1`: the growth inhibition was inactive: -5.45%.

With `CN(C)c1cccc(C(=O)NCC2(N(C)C)CCCCC2)c1`, the growth inhibition was inactive: 0.229%.

With `CC(C)Oc1ccc(C(=O)NCC2(N(C)C)CCCCC2)cc1`, the growth inhibition was inactive: 1.11%.

With `COc1ccc(Br)c(C(=O)NCC2(N3CCCCC3)CCCCC2)c1`, the growth inhibition was inactive: -1.62%.

For `O=C(OC1CN2CCC1CC2)C(CO)(c1ccccc1)c1ccccc1` (centres undefined), the growth inhibition was inactive: -1.04%.
